# Laboratory results: the supplement of paper PMC11006884
# Protein sequences, listed by entry. Tags and fused reporters are not part of them.
# UniProt O43521, whole entry, looked up: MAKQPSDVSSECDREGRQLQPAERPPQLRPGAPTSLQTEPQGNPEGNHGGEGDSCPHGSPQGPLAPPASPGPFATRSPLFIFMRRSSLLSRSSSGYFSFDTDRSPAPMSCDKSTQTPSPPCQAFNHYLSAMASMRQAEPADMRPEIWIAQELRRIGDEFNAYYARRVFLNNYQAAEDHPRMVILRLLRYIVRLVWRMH
# Shown are results outside the selection of targets with a hit, which stands elsewhere.
# Target: BCL2L11 C12 (UniProt O43521)
# Test: log2 ratio of iodoacetamide-alkyne labeling of the cysteine site, DMSO over compound (competition); higher = stronger covalent engagement of the cysteine by the compound, active = 1 or more
# Conditions: 500 µM; treatment time 1 h; system: HEK293T cell lysate
# Method in brief: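 Three replicates, each with duplicate channels, were prepared from HEK293T lysate (2 mg/mL) treated with vehicle or electrophile at 500 µM for 1 h at ambient temperature. Iodoacetamide alkyne was then applied for 1 h, and samples were clicked to sCIP-TMT reagents, pooled, trypsin-digested overnight at 37 °C, enriched on streptavidin, acid-eluted and analysed on Orbitrap Eclipse LC-MS/MS with FAIMS, with FragPipe quantification. The log2 competition ratio per cysteine is the mean control-channel divided by the mean compound-channel reporter intensity. Cysteines quantified in only one replicate were left out.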
smiles,measurement,value
COC(=O)C#Cc1ccccc1 [methyl 3-phenylpropiolate],log2 ratio of iodoacetamide-alkyne labeling,inactive: 0.38
